AlphaSeq binding of Ab-14 light chain variants to a spike HR2 peptide

All variants were tested on one target, the spike HR2 peptide PDVDLGDISGINAS (SARS-CoV-2).

Ab-14 is the parent antibody, in scFv form: VH, then a 15-residue (Gly4Ser)3 linker, then VL. The heavy chain is unchanged in all variants.
VH: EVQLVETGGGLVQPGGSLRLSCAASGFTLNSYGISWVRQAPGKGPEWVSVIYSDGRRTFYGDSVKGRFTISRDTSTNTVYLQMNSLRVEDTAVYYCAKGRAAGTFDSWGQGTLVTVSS
VL: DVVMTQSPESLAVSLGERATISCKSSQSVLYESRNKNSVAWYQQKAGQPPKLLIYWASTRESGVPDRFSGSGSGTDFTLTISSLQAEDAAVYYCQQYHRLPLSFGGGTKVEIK

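The parent was found by panning a naive human phage display library on the peptide. These sequences belong to a second round, designed from the earlier measurements on random variants of the parent. Group labels follow the data file (Ctrl: baseline library sampled from a position-specific scoring matrix, with some repeated check sequences; Rand: our label for a block that the file lists under HC and that is probably the random mutants of the ten best first-round binders; GP: Gaussian process model; GPLM: also part of the Gaussian process libraries; HC: hill climbing; Gen: genetic algorithm; Gibbs: Gibbs sampling; a sequence that several methods proposed may carry one label only). Affinity was read by AlphaSeq, a pooled yeast mating assay with surface-displayed partners. After mating in shaken culture at 30 °C for 16 h, diploids were selected and their barcode pairs sequenced. Read counts were normalised to the haploid input and turned into Kd by a linear fit to BCL2-family pairs of known affinity, for each replicate. Each pool was mated in six replicate cultures.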

Substitutions are numbered in sequence along the VL above, starting at 1 (not Kabat). This list holds designs with at most six substitutions. Affinities are written as log10 Kd with Kd in nM; a lower number is a better binder. Replicates are averaged; those with no signal do not enter the mean. A pair that was not seen in any replicate is written "nd"; this usually means weak binding, but a binder can also be missed. Three control strains display no target. For all light chain designs, 4% of the pairings with them gave a signal, with a median of 2.64 and one signal in twenty below 1.59, so weak values seen in few replicates may be background. Of ten entries with the parent sequence, four were seen in most replicates (averages 0.34 to 2.37), three in one and three in none, so single entries are noisy. Values of this round are not directly comparable with the first-round values of the same sequences. The authors' rule: three or more of the six replicates give a measured affinity, fewer mean a poor binder.

changes	group	mean log10 Kd (nM)	seen in
S25L+L30M+W56G	GP_Gen	0.34	6/6
Q27G+Y31F+W56N	GP_HC	0.28	6/6
S25L+Q27P+V29W+W56N	GP_Gen	-0.43	6/6
S25M+V29H+W56G+H98A	Ctrl	-0.21	6/6
V29W+Y31E+S58Y+S62Q	Ctrl	1.69	6/6
S25L+W56C+H98L	Ctrl	1.17	6/6
S25L+V29F+W56G+Q96N+P101T	GP_HC	nd	0/6
S25F+Q27D+Y31L+N35T+K36F+W56N	GP_HC	-0.03	6/6
S25H+Q27I+L30M+Y31R+S33D+W56D	GP_Gibbs	0.17	6/6
Y31T+S103I	Ctrl	2.66	3/6
S25W+S28G	Ctrl	2.25	6/6
S33E+K36G+W56E	Ctrl	1.00	6/6
L30P+Y31M+K36A+W56D	GP_HC	0.44	6/6
K24H+V29F+W56G	GP_HC	0.20	6/6
S25L+W56N+Q96C	GP_Gen	1.06	6/6
S25H+Y31A+P101H	Ctrl	nd	0/6
S26Q+S28G+K36W+W56G	GP_HC	-0.06	6/6
V29K+W56N+T59M	Ctrl	0.15	6/6
S25V+S26P+V29E+W56N+T59Q	GP_Gen	0.78	6/6
Q27P+S28L+V29Y+Y31E+W56E	GP_HC	nd	0/6
Y31E+V39H	Ctrl	nd	0/6
S25V+S26L+S33G+W56Q+S62D	GP_HC	0.27	6/6
S25C+Q27L+L30E+E32L+N35Q+W56H	GP_Gibbs	0.74	6/6
S25L+W56S+E61L	GP_Gen	-0.46	6/6
S25F+R34V+W56D	GPLM_HC	-0.12	6/6
S25L+S38A+W56E+E61M	GP_Gen	-0.33	6/6
R34H+H98N	Ctrl	1.62	3/6
S25L+K36P+W56D	GP_Gen	-0.15	6/6
S25H+Q27K+L30W+L102I	Ctrl	0.29	6/6
S25V+S33D+S38N+W56N	GP_Gen	-0.66	6/6
V29W+W56G+S62C	GP_HC	-0.19	6/6
S28D+V29Y+W56G	GP_HC	-0.19	6/6
L30F+R99N	Ctrl	2.04	4/6
S25W+Q27F+L30S+Y31G+W56D+H98E	GP_Gibbs	-0.40	6/6
S25L+S26K+L30P+W56N	GP_Gen	-0.03	6/6
S25F+N35D+W56E	GP_HC	0.15	6/6
K24H+Q27P+L30A+W56N+S62M	GP_HC	0.25	6/6
Q27P+V29Y+K36T+W56E	GP_HC	0.14	6/6
S25R+S26Q+R34T	Ctrl	2.17	1/6
L30R+W56H+S62G+R99W+S103L	Ctrl	2.06	1/6
Q27M+S28A	Ctrl	nd	0/6
Q27I+V29Y+N35M+W56E	GP_HC	0.67	6/6
S25V+V29H+W56E+Q96S	GP_Gen	-0.08	6/6
W56Y+E61A	Ctrl	1.73	6/6
S25M+V29Q+S33T+W56N	GP_Gibbs	-0.15	6/6
S25F+Q27D+Y31L+N35T+K36V+W56N	GP_HC	0.18	6/6
S25F+W56N+S58V+S62T	GP_HC	-0.45	6/6
Q27I+E32S+T59K	Ctrl	nd	0/6
S25V+S26R+V29T+T59V	GP_HC	1.05	6/6
V29K+R34G+W56Q	Ctrl	2.58	3/6
S25V+Y31M+S33F+E61P+P101L	Ctrl	2.38	2/6
S25L+S26P+L30G+W56N	GP_Gen	-0.29	6/6
N35H+H98F+P101E	Ctrl	2.89	5/6
S25L+V29E+W56E+S62K	GP_Gen	-0.16	6/6
K24I+S28T+K36T+W56E+A57R	Ctrl	0.80	1/6
K24H+Q27P+W56H	GP_HC	0.21	6/6
S25L+S26Q+S38A+W56N	GP_Gen	-0.59	6/6
V29W+W56G+A57N+P101W	Rand	nd	0/6
S25V+V29W+Y31M+W56E+E61R	GP_HC	0.52	6/6
Q27S+A57D	Ctrl	2.31	6/6
S25F+W56D+T59Q+E61L	GP_Gen	0.24	6/6
S25L+V29M+W56N+T59Q+E61C	GP_Gen	0.14	6/6
S25L+S26P+V29Q+W56E+T59Q	GP_Gen	-0.41	6/6
S25F+L30D+S33D+N35Q+W56N+E61L	GP_Gibbs	0.04	6/6
S25C+S26A+S28W+L30D+W56D+S62Q	GP_Gibbs	1.05	6/6
K24N+S25M+V29W+W56G+A57G+S58N	GP_HC	0.12	6/6

6 of these entries, quoted again:

changes,group,mean log10 Kd (nM),seen in
S25F+Q27D+Y31L+N35T+K36F+W56N,GP_HC,-0.03,6/6
L30P+Y31M+K36A+W56D,GP_HC,0.44,6/6
S25C+S26A+S28W+L30D+W56D+S62Q,GP_Gibbs,1.05,6/6
W56Y+E61A,Ctrl,1.73,6/6
S25L+W56S+E61L,GP_Gen,-0.46,6/6
S25F+R34V+W56D,GPLM_HC,-0.12,6/6

Values reported by Li et al. 2023, doi:10.1038/s41467-023-39022-2 (FLAb copy).